The source of these data is paper PMC3466118 (Journal of medicinal chemistry, 2011).

The test system of assay [1] is acetylation of p53 in HepG2 cells. Nature of the assay: Western blot, acetylation of p53 in HepG2 cells. Type of assay: cell-based, human. The settings on record: HepG2 total cell extracts. Background: Immunoblotting shows a protein as a band on a membrane.
Another assay has as its system HepG2 cells. The settings on record: 10 μM; cited from earlier work.
The test system of assay [2] is cleavage of caspase 3 in HepG2 cells. In words: Western blot, activation/cleavage of caspase 3 in HepG2 cells. The assay is classed as cell-based, human.

In the case of `O=C(CCCCCCC(=O)Nc1ccccc1)NO` [SAHA, suberoylanilide hydroxamic acid, reference compound], the “Acetylation of p53” value in assay [1] was “neither SAHA nor 2b induced additional time and dose-dependent hyperacetylation of p53”. Also, in the assay with HepG2 cells, the “Lag-phase before apoptotic effect” value was 12 to 16 h and the “Time of maximum apoptotic effect” value is on record as “about 36 h”. Also, the “Cleavage of caspase 3” value in assay [2] is listed as “induced cleavage of caspase 3 by 14 h with maximum activation at 24 h”.
